Antibody variant affinities, Ab-14 heavy chain, assay B

Binding partner: SARS-CoV-2 spike HR2 peptide, sequence PDVDLGDISGINAS.

Parent: Ab-14, a human scFv built as VH, a 15-residue (Gly4Ser)3 linker, VL. Only the CDRs of the heavy chain vary.
VH: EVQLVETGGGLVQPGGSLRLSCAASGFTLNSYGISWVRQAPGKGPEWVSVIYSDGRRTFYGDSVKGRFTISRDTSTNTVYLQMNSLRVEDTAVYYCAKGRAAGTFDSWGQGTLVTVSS
VL: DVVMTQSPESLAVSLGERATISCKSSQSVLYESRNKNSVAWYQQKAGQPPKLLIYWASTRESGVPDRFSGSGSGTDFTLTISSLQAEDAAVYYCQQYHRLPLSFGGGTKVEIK

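These sequences belong to a second round, designed from the earlier measurements on random variants of the parent. Their group label is 14H_Rand (Rand: our label for a block that the file lists under HC and that is probably the random mutants of the ten best first-round binders). The assay is AlphaSeq: two haploid yeast populations carry antibody and antigen on their surface. Pairs that bind mate more often; barcode pairs of the diploids are counted by sequencing. Scores were corrected for input abundance and mapped to Kd with protein pairs of known affinity run in the same pool. There are six technical replicates.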

Variants are written as CDR1, CDR2 and CDR3 of the heavy chain (limits as in the source). Parent: GFTLNSYGIS, VIYSDGRRTFYGDSVK, GRAAGTFDS. Affinities are written as log10 Kd with Kd in nM; a lower number is a better binder. Where no diploid with the target was found in that replicate, the entry reads "n.d.": below detection, most likely a poor binder, though not proof of it. Of ten entries with the parent sequence, four were seen in most replicates (averages 0.34 to 2.37), three in one and three in none, so single entries are noisy.

{"CDR-H1": "GFTKNSYGIS", "CDR-H2": "VIYADGRRTFYKDSVK", "CDR-H3": "GRAAGTNTS", "replicates, log10 nM": "n.d. n.d. n.d. n.d. n.d. n.d.", "control signals": "1/18 (1.92)"}
{"CDR-H1": "GFDLNSYGIS", "CDR-H2": "VIYSDGRITFYGASVK", "CDR-H3": "GRGAGWFNS", "replicates, log10 nM": "n.d. n.d. n.d. n.d. n.d. n.d.", "control signals": "1/18 (0.84)"}
{"CDR-H1": "GPDLNSYPIS", "CDR-H2": "VIYSDGRRTFYGDSVK", "CDR-H3": "GRTAGWFNS", "replicates, log10 nM": "n.d. n.d. n.d. n.d. n.d. n.d.", "control signals": "0/18"}
{"CDR-H1": "GFTLNEYGKS", "CDR-H2": "VIYSDGRRTFYTMSVK", "CDR-H3": "GRFAGTFDS", "replicates, log10 nM": "n.d. n.d. n.d. n.d. n.d. n.d.", "control signals": "0/18"}
{"CDR-H1": "CFTLNEYGIS", "CDR-H2": "VIYSDGRRTFYTDSVK", "CDR-H3": "GRFAGTFDS", "replicates, log10 nM": "n.d. n.d. n.d. n.d. n.d. n.d.", "control signals": "0/18"}
{"CDR-H1": "GMTLNSYGIS", "CDR-H2": "VIYADGRRTFNGDSVK", "CDR-H3": "GRAAGTNKS", "replicates, log10 nM": "n.d. n.d. n.d. n.d. n.d. n.d.", "control signals": "0/18"}
{"CDR-H1": "GFTLNLYGIS", "CDR-H2": "VIYSDGRRTQYIDEVK", "CDR-H3": "GRAAGTFDI", "replicates, log10 nM": "n.d. n.d. n.d. n.d. n.d. n.d.", "control signals": "0/18"}
{"CDR-H1": "GFTLNEYPIS", "CDR-H2": "VIKSDGRRTFYGDSVK", "CDR-H3": "MRAAVTFDQ", "replicates, log10 nM": "1.04 1.19 n.d. n.d. n.d. n.d.", "control signals": "0/18"}
{"CDR-H1": "GFTLNSYGKS", "CDR-H2": "VIYSDGRRTFYSDSVK", "CDR-H3": "KRAGGTFDS", "replicates, log10 nM": "n.d. n.d. n.d. n.d. n.d. n.d.", "control signals": "0/18"}
{"CDR-H1": "GFTANEYGIS", "CDR-H2": "VIYSDGRRTFYTDSVK", "CDR-H3": "GRFAGTFNS", "replicates, log10 nM": "n.d. n.d. n.d. n.d. n.d. n.d.", "control signals": "0/18"}
{"CDR-H1": "GFTLNDYPIS", "CDR-H2": "VIYSDGRRTQYIDSVK", "CDR-H3": "ETAAGTFDS", "replicates, log10 nM": "n.d. n.d. n.d. n.d. n.d. n.d.", "control signals": "0/18"}
{"CDR-H1": "GFTLNDYGIW", "CDR-H2": "VHYSDGRRTQYIDSVK", "CDR-H3": "GRAAGTFDS", "replicates, log10 nM": "n.d. n.d. n.d. n.d. 2.61 n.d.", "control signals": "0/18"}
{"CDR-H1": "GFTLNQYGIS", "CDR-H2": "VIYSDGRRTFYSDSIK", "CDR-H3": "GRAAGFFDS", "replicates, log10 nM": "n.d. n.d. n.d. n.d. n.d. n.d.", "control signals": "0/18"}
{"CDR-H1": "GFTLNQYGIS", "CDR-H2": "VIYSDGVRTFYSDSVK", "CDR-H3": "GRAALFFDS", "replicates, log10 nM": "n.d. n.d. n.d. n.d. n.d. n.d.", "control signals": "0/18"}
{"CDR-H1": "GFTLNDYGIS", "CDR-H2": "VIYSDGRRTFYGYSVK", "CDR-H3": "GRAALDFIS", "replicates, log10 nM": "n.d. n.d. n.d. n.d. n.d. n.d.", "control signals": "0/18"}
{"CDR-H1": "GFDLNSYGIS", "CDR-H2": "VIYSDGRRTFYGDSVK", "CDR-H3": "GEAAGWFNS", "replicates, log10 nM": "n.d. 2.60 3.51 3.11 n.d. n.d.", "control signals": "1/18 (2.54)"}
{"CDR-H1": "GFTLNEYGPS", "CDR-H2": "VIYADGRRTFYGDSVK", "CDR-H3": "GRPAATFDQ", "replicates, log10 nM": "n.d. n.d. n.d. n.d. n.d. n.d.", "control signals": "0/18"}
{"CDR-H1": "GFTSNSREIS", "CDR-H2": "VIYADGRRTGYGDSTK", "CDR-H3": "GRAAGTNKS", "replicates, log10 nM": "n.d. n.d. n.d. n.d. n.d. n.d.", "control signals": "0/18"}

As a blank, each scFv also met three strains without target: over all heavy chain designs, 1% of these pairings were detected, typically at 2.08 and seldom below 0.84. Also given: how often the same scFv was detected with the empty control strains, with their mean in brackets. A sequence measured in both rounds can read differently, since the two assays cover different ranges. The authors averaged sequences with at least three values out of six and counted those with two or fewer as poor binders.

The measurements come from Li et al. 2023 (doi:10.1038/s41467-023-39022-2) through the FLAb antibody collection.